SMILES strings stand for the structures. Like-named read-outs stand apart in the source and are kept apart here.

A word on the IC50: it is the concentration that gives 50% inhibition.

Type in all cases: binding
The target in one test is T1, DRB1*0401 (Homo sapiens, UniProt P01903+P01911, A100K/A169T/F76Y/I96L/K127E/L162R/M171V/N62H/P40V/Q125Y/R42H/S133A/S149N/S66Y/V115G/V209L/W38E).
T1 construct: made in house; host or cells: EBV-transformed homozygous human B cell lines, transfected fibroblasts or single-allele 721.221 transfectants
Description: biochemical.

In the next test the target is DRB1*0405 (Homo sapiens, UniProt P01903+P01911, A100R/A169T/D86S/F76Y/I96L/K127E/L162R/M171V/N62H/P40V/Q125Y/R42H/S133A/S149N/S66Y/V115G/V209L/W38E). Put plainly: biochemical.
The next test has as its target T2, DRB1*0101 (Homo sapiens, UniProt P01903+P01911, A100R/D57E/F55L/F60I/F76Y/I96L/L162R/M171V/P40L/Q125E/R42F/V115G/Y59C).
T2 construct: made in house; host or cells: EBV-transformed homozygous human B cell lines, transfected fibroblasts or single-allele 721.221 transfectants
Put plainly: biochemical.

In another test the target is DRB1*0404 (Homo sapiens, UniProt P01903+P01911, A100R/A169T/F76Y/I96L/K127E/L162R/M171V/N62H/P40V/Q125Y/R42H/S133A/S149N/S66Y/V209L/W38E). Description: biochemical.
The next test has as its target T3, DRB1*1501 (Homo sapiens, UniProt P01903+P01911).
T3 construct: made in house; host or cells: EBV-transformed homozygous human B cell lines, transfected fibroblasts or single-allele 721.221 transfectants
Put plainly: biochemical.

In the next test the target is DRB1*1101 (Homo sapiens, UniProt P01903+P01911, A100R/A169T/A87E/I96F/K41T/L162R/M171V/P40S/Q125H/Q178H/Q39Y/Q99D/R42S/S66Y/T262R/V115G/W38E). As to conditions: read-out: IC50 nM to purified HLA DRB1*1101.
For a further test, the target named is DRB1*1302 (Homo sapiens, UniProt P01903+P01911, A100E/A169T/K41T/L162R/M171V/P40S/Q125H/Q178H/Q39Y/Q99D/R42S/S66N/T262R/V115G/W38E/Y61H). As to conditions: read-out: IC50 nM to purified HLA DRB1*1302.
Another test has as its target T4, DRB1*0301 (Homo sapiens, UniProt P01903+P01911, A100K/A102G/A103R/A169T/F55Y/I96L/K41T/L162R/M171V/P40S/Q125H/Q178H/Q39Y/R42S/S66N/T106N/T262R/W38E/Y61H).
T4 construct: made in house; host or cells: EBV-transformed homozygous human B cell lines, transfected fibroblasts or single-allele 721.221 transfectants
The settings on record: read-out: IC50 nM to purified HLA DRB1*0301.

A further test addresses T5, DRB4*0101 (Homo sapiens, UniProt P01903+P13762, G164S).
T5 construct: made in house; host or cells: EBV-transformed homozygous human B cell lines, transfected fibroblasts or single-allele 721.221 transfectants
Description: biochemical. The settings on record: IC50 nM to purified HLA DRB4*0101.

In a further test the target is DRB1*0901 (Homo sapiens, UniProt P01903+P01911, A100R/A103E/D57H/D86V/F55Y/F60I/F76Y/I96F/K127E/L162R/M171V/P40D/Q125H/Q99R/R33Q/R42F/S133A/S66N/T210M/V115G/W38K/Y107V/Y59G/Y89S). As to conditions: read-out: IC50 nM to purified HLA DRB1*0901.
The target in the next test is DRB1*0802 (Homo sapiens, UniProt P01903+P01911, A100R/A103L/A169T/F76Y/H45Y/I96F/K41T/L162R/M171V/P40S/Q125H/Q178H/Q39Y/Q99D/R218S/R42G/S66Y/V115G/W38E). As to conditions: read-out: IC50 nM to purified HLA DRB1*0802.
The target in the next test is DRB1*0701 (Homo sapiens, UniProt P01903+P01911, A100R/A102G/A103Q/D57E/D86V/E43K/F76Y/K127E/L162R/M171V/P40G/Q125H/Q99D/R33Q/R42Y/R54Q/S133A/S66F/T210M/V115G/Y107V/Y59L/Y89S). The settings on record: read-out: IC50 nM to purified HLA DRB1*0701.
Setting [1] is: IC50 nM to purified HLA DRB1*0401.
Setting [2] is: IC50 nM to purified HLA DRB1*0101.
Setting [3] is: read-out: IC50 nM to purified HLA DRB1*0404.

In the case of `CC[C@H](C)[C@H](NC(=O)[C@H](Cc1ccccc1)NC(=O)[C@H](CC(C)C)NC(=O)[C@H](CCC(N)=O)NC(=O)[C@@H](N)CC(C)C)C(=O)N[C@@H](CCCCN)C(=O)N[C@@H](CC(=O)O)C(=O)N[C@@H](Cc1ccc(O)cc1)C(=O)N[C@@H](CCCNC(=N)N)C(=O)N[C@@H](Cc1ccc(O)cc1)C(=O)N[C@H](C(=O)N[C@@H](Cc1ccc(O)cc1)C(=O)N[C@@H](CCCNC(=N)N)C(=O)N[C@@H](CS)C(=O)N[C@@H](Cc1c[nH]cn1)C(=O)O)[C@@H](C)O` [Flu.PB1.551], the IC50 came out at 2910 nM on DRB1*0401 (setting [1]), 7980 nM against DRB1*0405, 6900 nM at DRB1*0101 (setting [2]) and 4190 nM at DRB1*0404 (IC50 nM to purified HLA DRB1*0404).

Take `CC[C@H](C)[C@H](NC(=O)[C@H](CC(N)=O)NC(=O)[C@H](Cc1ccc(O)cc1)NC(=O)[C@H](CC(C)C)NC(=O)[C@H](CC(N)=O)NC(=O)[C@@H]1CCCN1)C(=O)N[C@@H](CCCNC(=N)N)C(=O)N[C@@H](CC(N)=O)C(=O)N[C@@H](CC(C)C)C(=O)N[C@@H](Cc1c[nH]cn1)C(=O)N[C@H](C(=O)N1CCC[C@H]1C(=O)N[C@@H](CCC(=O)O)C(=O)N[C@H](C(=O)N[C@@H](CS)C(=O)O)C(C)C)[C@@H](C)CC` [Flu.PB1.599]: the IC50 at DRB1*0404 (setting [3]) turned out to be 8.6 nM; on DRB1*1501 (read-out: IC50 nM to purified HLA DRB1*1501), 9.1 nM.

As for `CC[C@H](C)[C@H](NC(=O)CNC(=O)[C@@H](N)CCCCN)C(=O)N[C@@H](CC(C)C)C(=O)NCC(=O)N[C@@H](Cc1ccccc1)C(=O)N[C@H](C(=O)N[C@@H](Cc1ccccc1)C(=O)N[C@H](C(=O)N[C@@H](CC(C)C)C(=O)N[C@H](C(=O)N[C@H](C(=O)N1CCC[C@H]1C(=O)N[C@@H](CO)C(=O)N[C@@H](CCC(=O)O)C(=O)O)C(C)C)[C@@H](C)O)[C@@H](C)O)C(C)C` [Flu.M1.60], the IC50 on DRB1*1101 is 37 nM; on DRB1*1302, 10 nM; on DRB1*0301, 2610 nM; against DRB1*0401 (setting [1]) it was 5.6 nM; at DRB1*0401 (read-out: IC50 nM to purified HLA DRB1*0401) it was 4.8 nM; at DRB4*0101, 767 nM. In addition, the IC50 on DRB1*0901 amounted to 33 nM; on DRB1*0405 (read-out: IC50 nM to purified HLA DRB1*0405), 6 nM; against DRB1*0101 (setting [2]), 28 nM; at DRB1*0101 (read-out: IC50 nM to purified HLA DRB1*0101), 15 nM; at DRB1*0404 (setting [3]) it was 1 nM; on DRB1*0802 it was 33 nM. Further, the half-inhibitory concentration (IC50) at DRB1*0701 was found to be 11 nM; against DRB1*1501 (IC50 nM to purified HLA DRB1*1501), 129 nM.
